Apparent affinities of Ab-14 variants for a coronavirus HR2 peptide

Source: Engelhart et al. 2022 (doi:10.1038/s41597-022-01779-4), MIT Lincoln Laboratory and A-Alpha Bio; data file from the FLAb repository.

Binding partner: SARS-CoV-2 spike HR2 peptide, sequence PDVDLGDISGINAS.

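Phage display of a naive human antibody library on the peptide gave the parent. AAYL50 was designed without a model: most single CDR substitutions and a random sample of double and triple ones. The assay is AlphaSeq: two haploid yeast populations carry antibody and antigen on their surface. Pairs that bind mate more often; barcode pairs of the diploids are counted by sequencing. A regression on co-assayed BCL2-family reference pairs converts the normalised counts of each replicate to an apparent Kd. The assay was run in three technical replicates.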

The variants keep the heavy chain, the linker and the frameworks of Ab-14 (scFv order VH, a (GGGGS)3 linker, VL).
VH: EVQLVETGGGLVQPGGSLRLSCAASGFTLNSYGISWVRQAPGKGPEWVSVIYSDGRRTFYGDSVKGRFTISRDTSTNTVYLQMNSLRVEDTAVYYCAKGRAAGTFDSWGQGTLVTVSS
VL: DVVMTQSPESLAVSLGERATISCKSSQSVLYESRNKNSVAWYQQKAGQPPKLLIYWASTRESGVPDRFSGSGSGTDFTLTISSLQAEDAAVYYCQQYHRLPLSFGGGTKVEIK

Each variant is given by its three light chain CDRs, as the data file delimits them; those of the parent are KSSQSVLYESRNKNSVA, WASTRES, QQYHRLPLS. Numbers give log10(Kd / nM), so 0 is 1 nM and 3 is 1 µM. Smaller is tighter. A mean of the replicates is given; it leaves out those without a signal. Where no diploid with the target was found in any replicate, the entry reads "no signal": below detection, most likely a poor binder, though not proof of it. Order: sorted from the lowest average up, undetected variants last. For reference, the parent read 0.65 as the reference entry and 1.68 as a member of this library. Three control strains display no target. For library AAYL50, 18% of the pairings with them gave a signal, with a median of 4.19 and one signal in twenty below 2.99, so weak values seen in few replicates may be background.

| CDR-L1 | CDR-L2 | CDR-L3 | mean log10 Kd (nM) | detected |
|---|---|---|---|---|
| KSSQAVLYESRNQNSVA | AASTRES | QQYHRLPLS | 0.31 | 3/3 |
| KSSQSELYESRNKNSVA | WASTRES | QQYHGLCLS | 0.48 | 3/3 |
| KSIQSVLYESRNKNSIA | WASTRES | QQYMRLPLS | 0.89 | 3/3 |
| KSSNSVLYESRNKNSVA | WASIRES | QQYHRLPLY | 1.12 | 3/3 |
| KSSQSVLYESRNKNSVA | WASTRMS | QQYHYLPLS | 1.28 | 3/3 |
| KSHQSVLYESKNKNSVA | WASTRES | QQYHRLPLS | 1.28 | 3/3 |
| KSSGSVLYESRGKCSVA | WASTRES | QQYHRLPLS | 1.62 | 3/3 |
| KSSQSVLYESRNKNSVA | WASTRES | QQYWRLPLF | 1.99 | 3/3 |
| KSSQSVLYESRNKDHVA | WASTRES | QQYHRLPLL | 2.05 | 3/3 |
| KSSQSVLYESCNKNSVA | WAMTRES | QQYHRLPLS | 2.20 | 3/3 |
| KSSTSVLEESRNKNSVA | WASTSES | QQYHRLPLS | 2.38 | 3/3 |
| KSSQSVLYEKRNKNSVA | WAGTRAS | QQYHRLPLS | 2.46 | 3/3 |
| KSSQSVLYESFNKNSVA | WASTRES | QAYERLPLS | 2.67 | 3/3 |
| KWSQSVLGESRNKNSVA | WASGRES | QQYHRLPLS | 2.79 | 3/3 |
| KSSVFVLYESRNKNSVA | WASTRRS | QQYHRLPLS | 2.83 | 2/3 |
| KSSQSVLYESRNLNSVA | TASTRES | QQYHRLPVS | 2.85 | 2/3 |
| KSSQSVLYLSRNKFSVA | WASTRPS | QQYHRLPLS | 3.02 | 2/3 |
| KSSQSVIYESRNKNSVA | WASTSES | PQYHRLPLS | 3.22 | 1/3 |
| KSNQSVLYESTNKNSVA | WASTGES | QQYHRLPLS | 3.23 | 3/3 |
| KSSQSVLYESRNKNTVA | WASTREM | QQYHRLPAS | 3.45 | 1/3 |
| KSSQSVLYESRCKNSVH | WASTRES | QQYHRLPSS | 3.56 | 1/3 |
| KSSQHVLYESRPKNCVA | WASTRES | QQYHRLPLS | 3.59 | 1/3 |

Continued, with the values leading:

| mean log10 Kd (nM) | detected | CDR-L1 | CDR-L2 | CDR-L3 |
|---|---|---|---|---|
| 3.61 | 1/3 | KSWQSVRYESRNKNSVA | WASFRES | QQYHRLPLS |
| 3.64 | 3/3 | KSSQSVLYESRNKNSVC | WASTRES | LQYHRLPLS |
| 3.94 | 2/3 | KMSQSVLYEHRNKNRVA | WASTRES | QQYHRLPLS |
| 4.26 | 2/3 | KSSQSVLYESRNKNLVA | WASTRES | QQYHPLPNS |
| 4.33 | 1/3 | ISSQSVLYESRNKNSVA | LASTRES | QQYHYLPLS |
| 4.34 | 2/3 | KSNQSVLYESCNKNSVA | WASTRES | QKYHRLPLS |
| 4.38 | 2/3 | KSSQSVLYESRNKNSVA | WHPTRES | QQKHRLPLS |
| 4.46 | 3/3 | KSSHIVLYESRNKNSVC | WASTRES | QQYHRLPLS |
| 4.53 | 3/3 | KSSQSVLYESRNKPSVA | WASTREG | QQYHRYPLS |
| 4.70 | 3/3 | KSSQSVLYESRNYNSVA | WASTRES | QPYHRLPLS |
| 5.51 | 1/3 | KSSQSVLYEGRNKNSVA | WASTRES | QMLHRLPLS |
| no signal | 0/3 | KSSQSVLYESRNKNSVA | WASPRES | QQYHSLPLS |
| no signal | 0/3 | GVSQSVLYESRFKNSVA | WASTRES | QQYHRLPLS |
| no signal | 0/3 | KSSQSVLYESRFKNSKA | WASTRES | QQYHRRPLS |
| no signal | 0/3 | QSSNSVLYESRNKNSVA | WASTRES | QIYHRLPLS |
| no signal | 0/3 | KSVQSVLYESRNKNIVA | WASTRES | QQPHRLPLS |
| no signal | 0/3 | WSSQSVLYESRNKNFEA | WASTRES | QQYHRLPLS |
| no signal | 0/3 | KSSQSVLYESRNKNSVA | WPSTRES | QQYHRMPLR |
| no signal | 0/3 | KSSQSVLYESRNKNSVA | WSSTRES | TQYHRAPLS |
| no signal | 0/3 | QPSQSVLYESRNKNSVA | WASTRES | QQYHRRPLS |
| no signal | 0/3 | KSSQSVLYESRNKNSLA | WASTRLG | QQYHRLPLS |
| no signal | 0/3 | KSSQSVLYESRNCNSVA | WAVTRQS | QQYHRLPLS |
| no signal | 0/3 | KSSQSVLYESRNKNSVA | WASTKVS | QQYHRAPLS |

Extract of 7 entries:

| CDR-L1 | CDR-L2 | CDR-L3 | mean log10 Kd (nM) | detected |
|---|---|---|---|---|
| KSSQSVLYESRCKNSVH | WASTRES | QQYHRLPSS | 3.56 | 1/3 |
| KSIQSVLYESRNKNSIA | WASTRES | QQYMRLPLS | 0.89 | 3/3 |
| KSSQSVLYEKRNKNSVA | WAGTRAS | QQYHRLPLS | 2.46 | 3/3 |
| KSSQSVLYESCNKNSVA | WAMTRES | QQYHRLPLS | 2.20 | 3/3 |
| KSSQSVLYESRNKNLVA | WASTRES | QQYHPLPNS | 4.26 | 2/3 |
| KSSQSVLYEGRNKNSVA | WASTRES | QMLHRLPLS | 5.51 | 1/3 |
| KSWQSVRYESRNKNSVA | WASFRES | QQYHRLPLS | 3.61 | 1/3 |